Data taken from patent US7838231 (REGENTS OF THE UNIVERSITY OF MICHIGAN, dated 2010).

Molecular target: the molecule itself
Assay: direct yeast two-hybrid assay, NPHP5 as bait and as prey

B1: full-length human nephrocystin-5 (NPHP5), yeast two-hybrid fusion (other, not shown: small tags and cut ends)
chain: MKPTGTDPRILSIAAEVAKSPEQNVPVILLKLKEIINITPLGSSELKKIKQDIYCYDLIQYCLLVLSQDYSRIQGGWTTISQLTQILSHCCVGLEPGEDAEEFYNELLPSAAENFLVLGRQLQTCFINAAKAEEKDELLHFFQIVTDSLFWLLGGHVELIQNVLQSDHFLHLLQADNVQIGSAVMMMLQNILQINSGDLLRIGRKALYSILDEVIFKLFSTPSPVIRSTATKLLLLMAESHQEILILLRQSTCYKGLRRLLSKQETGTEFSQELRQLVGLLSPMVYQEVEEQKLHQAACLIQAYWKGFQTRKRLKKLPSAVIALQRSFRSKRSKMLLEINRQKEEEDLKLQLQLQRQRAMRLSRELQLSMLEIVHPGQVEKHYREMEEKSALNIQKHWRGYRERKNFHQQRQSLIEYKAAVTLQRAALKFLAKCRKKKKLFAPWRGLQELTDARRVELKKRVDDYVRRHLGSPMSDVVSRELHAQAQERLQHYFMGRALEERAQQHREALIAQISTNVEQLMKAPSLKEAEGKEPELFLSRSRPVAAKAKQAHLTTLKHIQAPWWKKLGEESGDEIDVPKDELSIELENLFIGGTKPP
notes: Full-length NPHP5 cDNA (598 amino acid residues) fused to a GAL4 domain; also called KIAA0036
binding result: no binding
